Experimental data: article PMC10362907

Test system: NC(=O)C1=CN([C@@H]2O[C@H](COP(=O)(O)OP(=O)(O)OC[C@H]3O[C@@H](n4cnc5c(N)ncnc54)[C@H](O)[C@@H]3O)[C@@H](O)[C@H]2O)C=CC1
Assay: purified protein
Details: 1 mM cyclohexanone, 50 mM Tris-Cl pH 9.0, 25 °C

## Ac CHMO (CHMO WT) (Acinetobacter johnsonii; K326T/K349N/L143P/S208D)
Variant DTNP
  Km: 2790 ± 430 µM
  kcat: 2.46 s⁻¹
  kcat/Km: 880 M⁻¹ s⁻¹

## Ac CHMO (CHMO WT) (Acinetobacter johnsonii; H163Y/K326T/K349N/L143P/S208D)
Variant DTNPY
  Km: 2810 ± 210 µM
  kcat: 5.08 s⁻¹
  kcat/Km: 1810 M⁻¹ s⁻¹
